Measurements reported in ChEMBL document CHEMBL4477243, “Discovery and SAR of a novel series of potent, CNS penetrant M4 PAMs based on a non-enolizable ketone core: Challenges in disposition” (Bioorg Med Chem Lett, 2016).

Amino acid sequences for entries named in this document (tags omitted). A change or cut given only in a name is not applied to a line headed by its entry.
UniProt P11229: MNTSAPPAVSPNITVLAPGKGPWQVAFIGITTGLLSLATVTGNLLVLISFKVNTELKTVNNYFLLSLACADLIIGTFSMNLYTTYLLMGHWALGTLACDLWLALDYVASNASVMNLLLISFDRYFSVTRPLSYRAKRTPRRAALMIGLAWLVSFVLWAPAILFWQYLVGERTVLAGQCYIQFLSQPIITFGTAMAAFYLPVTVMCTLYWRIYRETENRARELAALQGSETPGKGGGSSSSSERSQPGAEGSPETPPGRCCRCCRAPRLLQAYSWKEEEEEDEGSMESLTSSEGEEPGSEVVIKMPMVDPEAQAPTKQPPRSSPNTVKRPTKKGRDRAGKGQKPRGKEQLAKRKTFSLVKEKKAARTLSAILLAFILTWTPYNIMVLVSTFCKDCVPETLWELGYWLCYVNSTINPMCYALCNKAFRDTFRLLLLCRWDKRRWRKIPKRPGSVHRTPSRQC

Target: Muscarinic acetylcholine receptor M1 (Homo sapiens) (UniProt P11229)
Experiment: Positive allosteric modulation activity at human M1 receptor

Question: Which Activity does the source give for `Cc1nc2sc(C(=O)c3ccccc3)c(N)c2c(C)c1C` here?
Answer: inactive

Calls of active or inactive are those of the source. No cut-off for these calls is given here.
